For 1 molecule, Mortality/6 mice and convulsions results are on record in patent US4755522A, “Derivatives of N-[3-(2,4,6-trimethoxybenzoyl)propyl]piperidine, and their use in therapeutics” (priority 1986, dated 1988).

The test system of this series is mice. The series is classed as in vivo.

Each structure is given as a SMILES string. Read-outs that look alike come from different tables or passages of the source.

Turning to `COc1cc(OC)c(C(=O)CCCN2CCCC(CO)C2)c(OC)c1.Cl` (stereo not shown) [CRL 41,391, N-[3-(2,4,6-trimethoxybenzoyl)propyl]-3-piperidinemethanol hydrochloride], the Mortality/6 mice is 0 (195 mg/kg I.P.), 3 (232.5 mg/kg I.P.) and 5 (260 mg/kg I.P.). Moreover, under “232.5 mg/kg I.P. (footnote *)”, the convulsions entry is “convulsions”.
